Drawing on PMC6834678, this text covers Kd for five substances.

Chains of the proteins cited; added tags and fusions are not shown. A change or cut given only in a name is not applied to a line headed by its entry. A line that says so, or that is headed by a name, gives the form on record, which may keep a tag or linker. Residues count along the entry.
UniProt P55899, 24-297: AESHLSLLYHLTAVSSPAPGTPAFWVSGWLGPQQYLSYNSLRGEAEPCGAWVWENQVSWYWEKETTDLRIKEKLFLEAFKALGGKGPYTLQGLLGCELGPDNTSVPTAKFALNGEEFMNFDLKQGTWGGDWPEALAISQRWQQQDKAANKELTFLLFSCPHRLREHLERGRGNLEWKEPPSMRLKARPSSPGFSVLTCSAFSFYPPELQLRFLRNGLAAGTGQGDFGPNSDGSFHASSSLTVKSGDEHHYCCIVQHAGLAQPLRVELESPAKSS
wt-IgG1 (Trastuzumab with the wild-type human IgG1 Fc domain) (human), light, as listed by the source, chain 2 of 2: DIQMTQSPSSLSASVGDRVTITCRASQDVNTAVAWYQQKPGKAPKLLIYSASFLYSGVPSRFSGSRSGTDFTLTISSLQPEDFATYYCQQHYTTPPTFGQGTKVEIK

The Kd is a measure of binding affinity in units of concentration.

For experiment [1], the target named is human FcγRIIIa V158 (monomeric) (human). Kind of experiment: SPR; monomeric Fc receptors; equivalent binding model. In general terms: SPR reads the build-up and loss of mass on a sensor chip optically.
The target in experiment [2] is wt-IgG1 (Trastuzumab with the wild-type human IgG1 Fc domain) (human). In words: SPR; IgG1 variants immobilised on a CM5 chip (~500 RU, amine coupling); hFcRn:hβ2m dimer injected at 1000-40 nM in PBS, pH 5.8, 30 μL/min.
The target of experiment [3] is LS-IgG1 (Trastuzumab IgG1 with M428L/N434S in the Fc domain) (human). The experiment is described as above.
Experiment [4] has as its target DHS-IgG1 (Trastuzumab IgG1 with L309D/Q311H/N434S in the Fc domain) (human). The experiment is described as above.
For experiment [5], the target named is YTE-IgG1 (Trastuzumab IgG1 with M252Y/S254T/T256E in the Fc domain) (human). The description is as above.
Experiment [6] has as its target human FcRn/human β2m complex (hFcRn:hβ2m dimer) (human) (UniProt P55899). Kind of experiment: SPR; hFcRn:hβ2m dimer immobilised at medium density (2000 RU, amine coupling); antibodies injected at 800-50 nM in PBS, pH 7.4, 30 μL/min.
The target is the same in experiment [7]. In words: SPR; hFcRn:hβ2m dimer immobilised at high density (4000 RU, amine coupling); antibodies injected at 800-50 nM in PBS, pH 7.4, 30 μL/min.

Regarding “wt-IgG1 (Trastuzumab with the wild-type human IgG1 Fc domain) (antibody)”, in experiment [1], the Kd was 170 nM.
On to “human FcRn/human β2m complex (hFcRn:hβ2m dimer) (from UniProt P55899 24-297; P61769 21-119)”, for which the Kd in experiment [2] is 550 nM; in experiment [3], 55 nM; in experiment [4], 110 nM; in experiment [5], 23 nM.
Turning to “DHS-IgG1 (Trastuzumab IgG1 with L309D/Q311H/N434S in the Fc domain) (antibody)”, the Kd in experiment [1] is 180 nM.
Turning to “LS-IgG1 (Trastuzumab IgG1 with M428L/N434S in the Fc domain) (antibody)”, the dissociation constant (Kd) stood at 946 nM in experiment [6], 567 nM in experiment [7] and 520 nM in experiment [1].
On to “YTE-IgG1 (Trastuzumab IgG1 with M252Y/S254T/T256E in the Fc domain) (antibody)”, for which the Kd in experiment [6] came out at 4730 nM; in experiment [7] it was 4290 nM; in experiment [1], 820 nM.
